Experimental findings from patent US10927076B2, “HSP90B N-terminal isoform-selective inhibitors” (priority 2017, dated 2021) are described below.

Chains of the proteins cited; added tags and fusions are not shown.
UniProt P08238, whole entry: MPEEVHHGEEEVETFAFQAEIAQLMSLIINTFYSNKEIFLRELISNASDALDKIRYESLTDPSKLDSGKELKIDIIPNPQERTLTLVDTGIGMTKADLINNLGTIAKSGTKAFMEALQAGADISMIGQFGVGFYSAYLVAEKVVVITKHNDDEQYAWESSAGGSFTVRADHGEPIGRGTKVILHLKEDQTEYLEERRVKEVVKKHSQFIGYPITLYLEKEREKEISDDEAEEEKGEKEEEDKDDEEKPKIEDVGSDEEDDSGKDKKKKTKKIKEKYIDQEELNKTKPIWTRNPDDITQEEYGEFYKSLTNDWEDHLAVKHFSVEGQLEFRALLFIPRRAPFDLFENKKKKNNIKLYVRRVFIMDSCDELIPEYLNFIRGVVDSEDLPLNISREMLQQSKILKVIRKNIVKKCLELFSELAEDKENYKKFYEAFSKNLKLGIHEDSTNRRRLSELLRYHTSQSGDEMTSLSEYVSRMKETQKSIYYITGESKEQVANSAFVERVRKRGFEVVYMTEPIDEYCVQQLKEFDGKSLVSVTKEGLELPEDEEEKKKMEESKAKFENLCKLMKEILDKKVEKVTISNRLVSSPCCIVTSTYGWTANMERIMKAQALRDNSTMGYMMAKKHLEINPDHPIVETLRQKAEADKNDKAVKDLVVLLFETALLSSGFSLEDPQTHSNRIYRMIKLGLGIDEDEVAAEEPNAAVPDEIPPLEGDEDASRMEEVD

One assay deals with Hsp90α (Homo sapiens (Human), UniProt P07900). As to the kind of experiment: Fluorescence polarization assay (FITC-GDA tracer displacement). The class given is binding.
In a further assay the target is Hsp90β (Homo sapiens (Human), UniProt P08238). The assay is described as above. The class given is binding.

`CC(C)c1cc(C(=O)N2Cc3ccccc3C2)c(O)c(C=O)c1O` [KUNB1, 2,6-Dihydroxy-3-(isoindoline-2-carbonyl)-5-isopropylbenzaldehyde] gave a Kd at Hsp90α of no less than 100 µM.

`C=Cc1c(O)c(C(=O)N2Cc3ccccc3C2)cc(C(C)C)c1O` [KUNB2, (2,4-Dihydroxy-5-isopropyl-3-vinylphenyl)(isoindolin-2-yl)methanone] returned a Kd at Hsp90α of no less than 100 µM. The molecule further displayed a Selectivity on Hsp90β of no less than 19.

In turn, `CC(C)c1cc(C(=O)N2Cc3ccccc3C2)c(O)c(CO)c1O` [KUNB14, (2,4-Dihydroxy-3-(hydroxymethyl)-5-isopropylphenyl)(isoindolin-2-yl)methanone] registered a Kd on Hsp90α of no less than 100 µM. At Hsp90β, the Selectivity was no less than 25 and the “selectivity over the other isoforms” value is greater than 25 fold.
